Assay outcomes as filed in PubChem BioAssay.
Rows were chosen to be rich in hits. Some 13% of all compounds tested hit in one or more screens of this group.
miR-21 reporter = miR-21 reporter, rising signal | Potency, µM (highest dose often 38.3 µM) | 340,000 tested, under 10 active | HeLa miR-21 FLuc reporter, luciferase, 48 h; active = well fitted rising curve with a large enough effect; inconclusive = small, poorly fitted or top-dose-only effect; inactive = no such curve, though single readings can be large or run the other way;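 note: miR-21 action dims this reporter so a rising signal means less miR-21 action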
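HeLa miR-21-FLuc reporter line, endogenous miR-21; 2000 cells/well in DMEM/10% FBS; compound titration up to ~40uM final, 48 h, 37 degree Celsius; luciferase detection reagent, 15 min lysis, CCD luminescence.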
G9a inh = inhibitors of human histone lysine methyltransferase G9a; Q96KQ7; G9a H3K9 monomethylation, AlphaScreen, 2 h; Potency, µM (titrated, usually from 102 µM), actives largely listed as inhibitors; actives 8.8% (n = 350,000); further: nearly all actives have a fitted effect of over 75% in size
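Compounds were preincubated with 20 nM G9a for 15 min, after which biotinylated H3K9 peptide (500 nM) and SAM (20 uM) started a 2 h room-temperature reaction. Monomethylated product was quantified by antibody-based AlphaScreen chemiluminescence.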
JMJD2E inh = JMJD2E (human) inhibition; JMJD2E catalytic domain, FDH-coupled NADH fluorescence (FDH is formaldehyde dehydrogenase); B2RXH2; AID 2147; actives 1.6% (n = 230,000); Potency, µM (titrated, usually from 57.1 µM), usual class: inhibitors; active means well fitted inhibition curve with a large enough effect, not every such curve was filed as active; inconclusive means small, poorly fitted or top-dose-only effect, or another doubt; inactive means no such curve, though single readings can be large or run the other way; further: nearly all actives have a fitted effect of over 50% in size
Lamin A splicing = changes lamin A minigene splicing in HeLa cells; HeLa LMNA splicing GFP/RFP minigene ratio, 48 h; Potency, µM (top dose mostly 46.1 µM), most hits filed as inhibitors; actives 0.01% (n = 200,000); AID 1487; active means well fitted inhibition curve with a large enough effect in the signal ratio, with a control signal flat, not every such curve was filed as active; inconclusive means small, poorly fitted or top-dose-only effect, or effect the other way, or a change in a side signal; the % refers to the signal ratio
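S3 HeLa cells stably expressing lamin A-EGFP splicing minigene plus DsRed2, 600 cells/well, 48 h compound exposure at 37C. Laser-scanning cytometry; analysed as GFP (500-530 nm)/RFP (575-640 nm) total intensity ratio; 0.5% DMSO vehicle.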
ALDH1A1 block = blocks purified human ALDH1A1 activity | P00352 | Purified ALDH1A1, NADH fluorescence, propionaldehyde substrate | Potency, µM (series often up to 75.3 µM), most hits filed as inhibitors | actives 7.3% (n = 220,000) | AID 1030; active means well fitted inhibition curve with a large enough effect, not every such curve was filed as active; inconclusive means small, poorly fitted or top-dose-only effect, or another doubt; inactive means no such curve, though single readings can be large or run the other way
Sfp inh = blocks B. subtilis Sfp PPTase activity | Biochemical Sfp PPTase activity, qHTS | Q9F4F7 | AID 1490 | actives 3.5% (n = 310,000) | Potency, µM, usual class: inhibitors;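 further: the enzyme is Sfp with the accession as filed and its product quenches rhodamine fluorescence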
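Fluorescence-quenching assay: 15 nM Sfp-PPTase preincubated 15 min at room temperature with compound, then 5 uM rhodamine-CoA and 12.5 uM BHQ-2-labelled YbbR peptide added. Fluorescence (ex 525/em 598 nm) read at start and after 30 min; difference gives rate.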
A number is an active result; 0 = inactive; ? = inconclusive; - = no result given; [ ] = remark or other dose. Unless noted, the call rests on the fitted dose curve; in most records, active means well fitted curve in the direction sought with a large enough effect; inconclusive means small, poorly fitted or top-dose-only effect, or another doubt; inactive means no such curve, though single readings can be large; an effect the other way counts as inactive or inconclusive.

SMILES	miR-21 reporter	G9a inh	JMJD2E inh	Lamin A splicing	ALDH1A1 block	Sfp inh
O=C(COC(=O)CNS(=O)(=O)/C=C/c1ccccc1)Nc1cccc2ccccc12	0	50µM	0	0	0	0
COc1ccc(NC(=O)COC(=O)CNS(=O)(=O)/C=C/c2ccccc2)cc1OC	-	0[12.7 µM]	-	-	-	-
CCc1cccc(C)c1NC(=O)COC(=O)CNS(=O)(=O)/C=C/c1ccccc1	0	?	0	0	?	0
CC(C)(C)NC(=O)Cn1cc(S(=O)(=O)Cc2ccccc2Cl)c2ccccc21	0	0	-	0	-	-
CCCOc1ccc(C(=O)Nc2cc3c(cc2N2CCOCC2)n(C)c(=O)n3C)cc1	0	0	-	-	-	-
O=C(Nc1ccc(N2CCOCC2)cc1N1CCOCC1)c1ncoc1-c1cccc(F)c1	0	35µM	-	-	-	0
CC(C)COc1ccc(C(=O)Nc2ccc(N3CCOCC3)cc2N2CCOCC2)cc1	0	10µM	-	-	-	0
CCCCCOc1ccc(C(=O)Nc2ccc(N3CCOCC3)cc2N2CCOCC2)cc1	-	2µM	-	-	-	-
Cc1cccc(OCC(=O)Nc2nnc(S(=O)(=O)N3CCCCCC3)s2)c1	0	?	-	0	-	0
CC1CCCCN1S(=O)(=O)c1cc2c3c(c1)CC(=O)N3CCC2 (stereo not drawn)	0	0	-	?	-	-
O=C(NC(=S)Nc1ccc(Cl)c(C(=O)O)c1)c1cccc(COc2ccccc2)c1	0	0	-	-	-	?
COCCNC(=S)NNc1ccc(Cl)c(C(=O)O)c1	0	18µM	?	-	8.9µM	4µM
COc1cc(OC)cc(C(=O)NC(=S)Nc2ccc(Cl)c(C(=O)O)c2)c1	0	45µM	?	0	0	0
COc1cc(C(=O)NC(=S)Nc2ccc(Cl)c(C(=O)O)c2)cc(OC)c1OC	0	-	0	0	0	0
CCCCOc1cccc(C(=O)NC(=S)Nc2ccc(Cl)c(C(=O)O)c2)c1	0	11µM	0	?	?	0
Cc1ccc(Nc2c3c(nc4nncn24)CCC3)c(C)c1	0	0	-	-	-	-
COCCCn1c(SCC(=O)N2CCOCC2)nc2cc(Cl)ccc2c1=O	-	0[2.33 µM]	-	-	-	-
CCC12CN3CC(C)(CN(C1)C3c1ccccc1C)C2=O (stereo not drawn)	0	0	-	-	-	-
Cc1nn(-c2ccccc2)c(Cl)c1/C=C(\C#N)C(=O)NC(C)C	0	0	0	?	14µM	0
COc1ccccc1NC(=O)/C(C#N)=C/c1c(C)nn(-c2ccc(F)cc2)c1Cl	0	0	0	0	0	0
CC(C)(C)C1CCc2c(sc(NC(=O)Cn3nnc(-c4cccc(C(F)(F)F)c4)n3)c2C#N)C1 (stereo not drawn)	0	0	-	-	-	-
CCOC(=O)c1sc(=S)n(C)c1C	0	0	0	0	0	0
CCOC(=O)c1c[nH]c(=S)n1C	0	22µM	0	?	0	?
Cc1ccc(C(=O)Nc2ccc(O)c(C(=O)O)c2)o1	0	?	0	0	0	0
Cc1ccc(OCC(=O)Nc2ccc(O)c(C(=O)O)c2)cc1C	0	35µM	?	0	?	0
SMILES	miR-21 reporter	G9a inh	JMJD2E inh	Lamin A splicing	ALDH1A1 block	Sfp inh
CC(C)(C)c1ccc(OC(=O)Nc2ccc(O)c(C(=O)O)c2)cc1	0	?	?	-	0[13.5 µM]	50µM
Cc1cc(C)cc(OCC(=O)Nc2ccc(N3CCCC3)cc2)c1	0	0	?	0	0	56µM
Cc1ccc(C(C)C)cc1OCC(=O)Nc1ccc(N2CCCCC2)cc1	-	16µM	-	-	-	-
COc1ccc(C)cc1NS(=O)(=O)c1c(C)nc2sc(C)cn2c1=O	0	0	-	-	-	-
COc1ccc(OCC(=O)Nc2ccc(N3CCCCC3)cc2)cc1	0	0	0	-	0	0
CCc1ccc(OCC(=O)Nc2ccc(N3CCN(S(C)(=O)=O)CC3)cc2)cc1	0	79µM	0	?	0	0
Cc1ccc(OCC(=O)Nc2ccc(N3CCCC3)cc2)cc1C	0	11µM	?	0	?	32µM
Cc1ccc(OCC(=O)Nc2cc(C(C)(C)C)on2)cc1C	0	-	-	-	-	45µM
Cc1cc(NC(=O)COc2ccc(C)c(C)c2)no1	0	0	-	-	-	0
COc1ccc(NC(=O)c2ccco2)cc1NC(=O)c1cccc(C)c1OC	0	0	-	-	-	-
O=C(NCC1CCCO1)c1c[nH]c2ccc(S(=O)(=O)Nc3ccc(F)cc3F)cc2c1=O (stereo not drawn)	0	0	-	-	-	-
COc1ccc(/C(C)=N/Nc2nc3ccccc3nc2C)cc1	0	35µM	?	-	-	25µM
COc1ccc(/C(C)=N/Nc2nncc3ccccc23)cc1	0	0	-	-	-	0
NC(=O)c1cnn(Cc2ccc(Cl)cc2)c1N	0	0	0	0	0	0
NNC(=O)c1cnn(Cc2ccccc2)c1N	0	0	0	0	13µM	0
CCOc1ccc(C(=O)N(Cc2ccc(C(C)C)cc2)Cc2ccco2)cc1	0	0	-	-	-	-
COc1ccc(CCN2CC(C(=O)Nc3ccc4c(c3)OCO4)CC2=O)cc1OC (stereo not drawn)	0	0	0	-	0	0
COc1ccc(CCNC2CC(=O)N(CCc3ccc(OC)c(OC)c3)C2=O)cc1OC (stereo not drawn)	0	0[12.7 µM]	0	0	6.3µM	0
